Laboratory results taken from US20190241569A1, “3-(ARYL OR HETEROARYL) METHYLENEINDOLIN-2-ONE DERIVATIVES AS INHIBITORS OF CANCER STEM CELL PATHWAY KINASES FOR THE TREATMENT OF CANCER” (Boston Biomedical, Inc., priority 2013, published 2019).

Protein sequences, listed by entry. Tags and fused reporters are not part of them. Lines headed by an entry give the natural chain unless they say otherwise; changes in a name come on top.
UniProt Q9BVS4: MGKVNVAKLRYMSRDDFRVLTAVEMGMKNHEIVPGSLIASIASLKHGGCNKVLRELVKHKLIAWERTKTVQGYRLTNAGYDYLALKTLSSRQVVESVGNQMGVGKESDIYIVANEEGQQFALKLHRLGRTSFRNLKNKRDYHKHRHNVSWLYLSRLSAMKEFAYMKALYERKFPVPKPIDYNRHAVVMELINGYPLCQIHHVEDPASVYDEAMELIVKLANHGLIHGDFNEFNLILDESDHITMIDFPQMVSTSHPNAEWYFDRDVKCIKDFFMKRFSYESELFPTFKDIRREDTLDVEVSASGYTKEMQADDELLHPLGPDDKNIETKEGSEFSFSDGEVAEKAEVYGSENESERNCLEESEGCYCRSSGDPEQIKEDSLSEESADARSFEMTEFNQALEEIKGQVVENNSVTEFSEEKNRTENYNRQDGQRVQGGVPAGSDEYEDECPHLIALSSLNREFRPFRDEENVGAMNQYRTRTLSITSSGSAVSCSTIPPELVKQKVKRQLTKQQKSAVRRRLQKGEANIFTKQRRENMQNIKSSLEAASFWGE

Molecular target: T1, human RIOK2 protein (Homo sapiens, UniProt Q9BVS4)
T1 construct: glutathione S-transferase is fused to N-terminal of a full-length human RIOK2 protein; GST (glutathione S-transferase) (N); purchased CarnaBio, Inc; host or cells: baculovirus-Sf21 cell expression system
Assay: RIOK2 autophosphorylation ELISA (Test Example 4)
Assay type: biochemical
Conditions: 30° C. for 1 hour
Method: A protein in which glutathione S-transferase is fused to N-terminal of a full-length human RIOK2 protein was used as a recombinant human RIOK2 protein. The protein was prepared using a baculovirus-Sf21 cell expression system from CarnaBio, Inc. A kinase reaction solution was prepared by mixing 25 μg/mL of the recombinant human RIOK2 protein and 100 μM of ATP in 20 μl of kinase reaction buffer (50 mM Tris-HCl, 10 mM MgCl2, 10 mM MnCl2, 1 mM DTT, 0.01% Brij, 1× PhosSTOP (manufactured by Roche Applied Science)), and was incubated at a temperature of 30° C. for 1 hour. After adding 30 μl of 40 mM EDTA solution to this kinase reaction solution, the kinase reaction solution was transferred to a MaxiSorp 96 well plate (manufactured by Nunc). Thereafter, phosphorylated human RIOK2 protein was allowed to adsorb onto the wells by leaving the plate in a refrigerator overnight.
The following day, the supernatant was removed, and the wells were washed three times with ELISA buffer (20 mM Tris-HCl, 150 mM NaCl, 0.2% Tween-20, 0.1% BSA). Thereafter, 100 μl of Blocking-One P (product name; manufactured by Nacalai Tesque, Inc.) was applied to the wells, and a blocking treatment was performed for 1 hour at room temperature. […] An absorptiometric level of 450 nm was measured in each well using ARVO SX (manufactured by Wallac).

With `CN[C@@H]1C[C@H]2O[C@@](C)([C@@H]1OC)n1c3ccccc3c3c4c(c5c6ccccc6n2c5c31)C(=O)NC4` [staurosporine, reference compound] the RIOK2 kinase activity was “suppressed depending on the concentration of staurosporine”.
